Patent US11548001B1, “Air to liquid micro-fluidic chamber” (dated 2023)

By UniProt entry, the sequences of proteins in these tests, tags left out. Residues count along the entry.
UniProt P22303, 32-614 limits assumed: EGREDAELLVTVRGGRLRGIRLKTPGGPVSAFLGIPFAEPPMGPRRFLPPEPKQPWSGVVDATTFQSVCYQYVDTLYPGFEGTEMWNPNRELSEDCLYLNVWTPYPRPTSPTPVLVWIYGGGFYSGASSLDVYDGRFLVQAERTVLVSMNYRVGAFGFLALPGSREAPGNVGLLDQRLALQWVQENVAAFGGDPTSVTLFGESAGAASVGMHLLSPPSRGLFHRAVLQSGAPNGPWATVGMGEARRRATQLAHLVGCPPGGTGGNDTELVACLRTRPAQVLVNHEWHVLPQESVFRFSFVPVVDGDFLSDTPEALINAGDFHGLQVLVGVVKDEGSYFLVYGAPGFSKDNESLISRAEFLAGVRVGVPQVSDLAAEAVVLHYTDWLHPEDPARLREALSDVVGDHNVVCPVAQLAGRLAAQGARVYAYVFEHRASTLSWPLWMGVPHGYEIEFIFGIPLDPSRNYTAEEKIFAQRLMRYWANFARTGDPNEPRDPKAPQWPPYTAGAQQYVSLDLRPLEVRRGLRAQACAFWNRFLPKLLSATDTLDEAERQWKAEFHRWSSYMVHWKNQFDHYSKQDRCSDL

Target: acetylcholinesterase (AChE) (Homo sapiens, UniProt P22303)
Assay: Organo-phosphate inhibition of immobilized AChE in microchannel reactor (AChE/COX/HRP chain reaction, fluorescence read-out)

`CCCCOP(=O)(OCCCC)OCCCC` was tested, and the “fluorescent intensity as inhibitor solubilized flow passes into the microchannel reactor” value (TBP as inhibition substrate, hexane/water hybrid flow, reactant flow rate ~50 μL/min, excitation 550 nm, emission ~600 nm) was “fluorescent intensity is observed to decrease”, the “fluorescence signal (current) after injection of TBP collected from air” value (TBP collected from air into hexane, syringe injected after 400 sec stationary phase, FIG. 17) was “inhibition of AChE occurs” and the “fluorescence (photodetector current) after start of inhibition” value (~200 pM TBP, time 0 = starting point of inhibition, FIG. 16B) was “the fluorescence changes”.
